Screening results: PubChem BioAssay, ICCB-Longwood Screening Facility, Harvard Medical School
A selection: hits, their analogues and other compounds. The true share with any hit is near 0.43%.
GIV Gai3 FP: inhibitors of GIV GBA-motif binding to rat Galpha-i3; percent of control (FP), % (concentration not given with the values); AID 1224905; Galpha-i3/FITC-GIV peptide fluorescence polarization, 90 min; stronger effect = lower value; scaled: aluminum fluoride 0%, vehicle 100%; 210,000 compounds, 0.42% hits; P08753;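 active means replicate mean at 85% of control or lower, very high polarization wells dropped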;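 further: wells of about 15 µL received 100 nL stock; the first replicate is given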
HCMV UL50-53 inh: inhibitors of HCMV UL50-UL53 interaction, biochemical, HTRF; HCMV UL50-UL53 nuclear egress complex (human cytomegalovirus); normalized percent inhibition; inhibition, % (concentration not given with the values); 190,000 compounds, 0.15% hits; in the data active means inhibition above about 27%, passing the limit was not always enough
GIV Gai FP conf: inhibitors of GIV peptide binding to Galpha-i3, confirmation, biochemical, fluorescence polarization, FITC-GIV peptide, rat Galphai3; shares compounds with GIV Gai3 FP; active compounds read low; fluorescence polarization, mP at 100 µM; 580 compounds, 38% hits;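 active means inhibition score of 15 or more, meaning 100 minus mean polarization as percent of control over three replicates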;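 further: lower mP means peptide displaced from Galphai3 so more inhibition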
GIV Gai AS conf: inhibitors of GIV binding to Galpha-i3, confirmation, orthogonal assay for GIV-Galpha-i inhibitor project, biochemical, AlphaScreen, His-GIV, GST-Galphai3. purified proteins, 90 min; active compounds read low. shares compounds with GIV Gai3 FP. AlphaScreen counts at 100 µM. 580 compounds, 39% hits;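 active means inhibition score at or above a set limit, where the score is 100 minus the three-replicate mean percent of control signal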
* = called active by the depositor.

Screening CC(C)C(NS(=O)(=O)c1ccccc1)c1nc(-c2ccc3c(c2)Sc2ccccc2C(=O)N3C)no1 (configuration not stated) returned GIV Gai3 FP 98.
Cc1cccc(-c2nc3nc(C)cc(N4CCN(c5ccccc5)CC4)n3n2)c1 was read as GIV Gai3 FP 103 and HCMV UL50-53 inh -36.
`Cc1ccc(-c2nc3nc(C)cc(N4CCN(c5cccc(C)c5)C(C)C4)n3n2)cc1` (configuration not stated) gave GIV Gai3 FP 73*, HCMV UL50-53 inh 10, GIV Gai FP conf 84 and GIV Gai AS conf 32703.
O=C(NCCc1nc(-c2ccc(Cl)cc2)no1)c1cccs1 was read as GIV Gai3 FP 103 and HCMV UL50-53 inh -16.
For Oc1ccc(N=Cc2ccccc2O)cc1 the results were GIV Gai3 FP 104 and HCMV UL50-53 inh 7.
Screening Oc1ccccc1C=Nc1cccnc1 returned GIV Gai3 FP 83*, HCMV UL50-53 inh -5, GIV Gai FP conf 42* and GIV Gai AS conf 16309*.
Screening CC1=NN(c2ccccc2)C(=O)/C1=C1/C(=O)N(c2ccccc2)N=C1C returned GIV Gai3 FP 61*, HCMV UL50-53 inh 106*, GIV Gai FP conf 53* and GIV Gai AS conf 17646*.
CC1=NN(c2ccccc2)C(=O)C1=C1SCCS1 was read as GIV Gai3 FP 103 and HCMV UL50-53 inh -109.
C=CCOc1ccc(C2CC(=O)Nc3c2c(C)nn3-c2ccc3nncn3n2)cc1 (configuration not stated) was read as GIV Gai3 FP 94 and HCMV UL50-53 inh -27.
For COc1ccc(C=C2C(=O)NC(=O)NC2=O)cc1Oc1ccc([N+](=O)[O-])cc1[N+](=O)[O-] the results were GIV Gai3 FP 87, HCMV UL50-53 inh 51*, GIV Gai FP conf 60 and GIV Gai AS conf 15324*.
`COc1cc(/C=C2\SC(=O)N(C)C2=O)ccc1Oc1ccc([N+](=O)[O-])cc1[N+](=O)[O-]` gave GIV Gai3 FP 96 and HCMV UL50-53 inh -20.
Screening CN(Cc1ccccc1)C(=O)c1cc2c(=O)n3ccccc3nc2n1C returned GIV Gai3 FP 68*, HCMV UL50-53 inh -30, GIV Gai FP conf 70 and GIV Gai AS conf 35770.
Screening CCN(Cc1ccccc1)C(=O)c1cc2c(=O)n3ccccc3nc2n1C returned GIV Gai3 FP 102 and HCMV UL50-53 inh -50.
`Cc1ccc(S(=O)(=O)N2C(=O)CCC2C(=O)NCc2nc(-c3cccc(C)c3)no2)cc1` (configuration not stated) gave GIV Gai3 FP 100 and HCMV UL50-53 inh -12.
`CCCCC(=O)Nc1ccc(N2CCN(CC(=O)NC(C)(C)C)CC2)c(C(=O)O)c1` gave GIV Gai3 FP 104.
Screening C=CCN(CC=C)Cc1ccc(C(=O)OC)o1 returned GIV Gai3 FP 80*, HCMV UL50-53 inh 5, GIV Gai FP conf 75 and GIV Gai AS conf 54407.
For COC(=O)c1ccc(CC#N)o1 the results were GIV Gai3 FP 98 and HCMV UL50-53 inh -9.
For Oc1ccc(N=Cc2ccccc2)cc1-c1nc2ccccc2s1 the results were HCMV UL50-53 inh -24.
Screening COc1ccc(/C=c2\sc3ncnn3c2=O)cc1 returned HCMV UL50-53 inh -36.
For CCN(CC)c1ccc(/C=c2\sc3ncnn3c2=O)cc1 the results were GIV Gai3 FP 57*, GIV Gai FP conf 35* and GIV Gai AS conf 49389.

Reprinted from the part before: 3 compounds, then new ones.
For Oc1ccc(N=Cc2ccccc2)cc1-c1nc2ccccc2s1 the results were HCMV UL50-53 inh -24.
Screening COc1ccc(/C=c2\sc3ncnn3c2=O)cc1 returned HCMV UL50-53 inh -36.
For CCN(CC)c1ccc(/C=c2\sc3ncnn3c2=O)cc1 the results were GIV Gai3 FP 57*, GIV Gai FP conf 35* and GIV Gai AS conf 49389.
For O=C1C(Sc2ncn[nH]2)=C/C(=N/S(=O)(=O)c2ccc(Cl)cc2)c2ccccc21 the results were GIV Gai3 FP 8.2*, HCMV UL50-53 inh -8, GIV Gai FP conf 18* and GIV Gai AS conf 4487*.
For O=S(=O)(Nc1ccc(O)c(Sc2ncn[nH]2)c1)c1ccccc1 the results were GIV Gai3 FP 103.
CCN(CC)CCCNC(=O)C1CCCN(S(=O)(=O)c2ccc3c(ccn3CC)c2)C1 (configuration not stated) was read as GIV Gai3 FP 103 and HCMV UL50-53 inh -31.
C=CCNC(=O)C1CCCN(S(=O)(=O)CCC)C1 (configuration not stated) was read as GIV Gai3 FP 84*, HCMV UL50-53 inh 1, GIV Gai FP conf 64 and GIV Gai AS conf 51209.
CCCS(=O)(=O)N1CCCC(C(=O)NC(C)C)C1 (configuration not stated) was read as GIV Gai3 FP 107 and HCMV UL50-53 inh -31.
NC(=O)COC(=O)c1cc(-c2ccccc2)c(N2CCOCC2)s1 was read as HCMV UL50-53 inh -53.
`Cn1cccc1CN1CCC(C(O)c2ccccc2)CC1` (configuration not stated) gave GIV Gai3 FP 100.
Cc1cc(C)cc(N2C(=O)N(Cc3cc(=O)n4ccccc4n3)c3ccccc3S2(=O)=O)c1 was read as GIV Gai3 FP 107.
Screening O=C1N(Cc2cc(=O)n3ccccc3n2)c2ccccc2S(=O)(=O)N1c1ccc(Cl)cc1 returned GIV Gai3 FP 85*, GIV Gai FP conf 51* and GIV Gai AS conf 35949.
CC(=O)NCCNS(=O)(=O)c1cccc2nsnc12 was read as GIV Gai3 FP 109.
Screening CC1(C)Cc2ccccc2C2=NNC(=O)C2=N1 returned GIV Gai3 FP 76*, HCMV UL50-53 inh -29, GIV Gai FP conf 54* and GIV Gai AS conf 30303.
CC1(C)Cc2ccccc2C(C2=C(O)CCCC2=O)=N1 was read as GIV Gai3 FP 105.
For O=C(Nc1ccc2c(c1)OCCO2)c1cccc(Nc2ncc(-c3ccc(F)cc3)cn2)c1 the results were GIV Gai3 FP 104.
Screening c1ccc(COn2c3c(c4c5nonc5ccc42)CCCC3)cc1 returned GIV Gai3 FP 52*, HCMV UL50-53 inh -34, GIV Gai FP conf 49* and GIV Gai AS conf 18180*.
CCOC(=O)c1c(C)n(OCc2ccccc2)c2ccc3nonc3c12 was read as GIV Gai3 FP 99.
For COC(=O)Cn1cc2c(n1)-c1c(oc(C(=O)N3CCCC3)c1C)CC2 the results were GIV Gai3 FP 97.
O=C(O)C1Nc2c(I)cccc2C2C=CCC12 (configuration not stated) was read as GIV Gai3 FP 43*, HCMV UL50-53 inh 14, GIV Gai FP conf 36* and GIV Gai AS conf 1672*.
For CC(=O)Nc1ccc2c(c1)C1C=CCC1C(C(=O)O)N2 (configuration not stated) the results were GIV Gai3 FP 188 and HCMV UL50-53 inh -58.
`O=C(C1CCCN(c2ccnc(-c3ccc(F)cc3)n2)C1)N1CCN(Cc2ccccc2)CC1` (configuration not stated) gave GIV Gai3 FP 109 and HCMV UL50-53 inh -29.
Screening N#Cc1ccccc1Cn1cc(C=C2C(=O)NC(=O)NC2=O)c2ccccc21 returned GIV Gai3 FP 63*, HCMV UL50-53 inh -20, GIV Gai FP conf 80 and GIV Gai AS conf 40454.

Retrieved one by one from the entries so far:
For O=C(Nc1ccc2c(c1)OCCO2)c1cccc(Nc2ncc(-c3ccc(F)cc3)cn2)c1 the results were GIV Gai3 FP 104.
For O=C1C(Sc2ncn[nH]2)=C/C(=N/S(=O)(=O)c2ccc(Cl)cc2)c2ccccc21 the results were GIV Gai3 FP 8.2*, HCMV UL50-53 inh -8, GIV Gai FP conf 18* and GIV Gai AS conf 4487*.
